According to patent US6017877A, “Method and composition for treating thrombosis” (priority 1994, dated 2000):
Where “and” joins values, the source holds several entries; their conditions need not be identical. Equal entries are not always repeated.

Chains of the proteins cited; added tags and fusions are not shown. Residues count along the entry.
UniProt P05106, 27-788: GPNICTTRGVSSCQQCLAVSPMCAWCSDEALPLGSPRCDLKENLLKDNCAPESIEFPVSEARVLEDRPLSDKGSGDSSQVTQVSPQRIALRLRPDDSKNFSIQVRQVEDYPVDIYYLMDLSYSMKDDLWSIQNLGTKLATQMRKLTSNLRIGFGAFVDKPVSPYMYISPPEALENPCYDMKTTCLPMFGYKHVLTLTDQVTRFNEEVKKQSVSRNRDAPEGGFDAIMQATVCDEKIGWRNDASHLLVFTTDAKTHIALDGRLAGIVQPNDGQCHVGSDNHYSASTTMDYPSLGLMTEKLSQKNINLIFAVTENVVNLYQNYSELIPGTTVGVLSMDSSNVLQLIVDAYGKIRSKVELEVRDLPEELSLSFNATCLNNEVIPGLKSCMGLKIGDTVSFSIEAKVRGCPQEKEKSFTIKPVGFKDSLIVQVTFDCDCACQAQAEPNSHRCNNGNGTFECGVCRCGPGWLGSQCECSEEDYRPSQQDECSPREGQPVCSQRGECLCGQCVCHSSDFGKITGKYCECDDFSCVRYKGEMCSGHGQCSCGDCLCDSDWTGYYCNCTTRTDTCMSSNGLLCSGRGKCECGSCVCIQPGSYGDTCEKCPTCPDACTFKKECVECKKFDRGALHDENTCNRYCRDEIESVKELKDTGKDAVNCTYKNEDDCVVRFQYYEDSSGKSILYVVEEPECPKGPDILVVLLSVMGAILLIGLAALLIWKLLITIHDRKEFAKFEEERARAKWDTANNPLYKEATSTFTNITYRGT
UniProt P06756, 891-1048 partner limits assumed: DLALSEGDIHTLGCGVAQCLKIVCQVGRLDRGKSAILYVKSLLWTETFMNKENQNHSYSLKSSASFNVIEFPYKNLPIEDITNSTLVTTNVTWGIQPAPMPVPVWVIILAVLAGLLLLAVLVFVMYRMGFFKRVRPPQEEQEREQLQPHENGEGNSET
UniProt P06756, 31-889 limits assumed: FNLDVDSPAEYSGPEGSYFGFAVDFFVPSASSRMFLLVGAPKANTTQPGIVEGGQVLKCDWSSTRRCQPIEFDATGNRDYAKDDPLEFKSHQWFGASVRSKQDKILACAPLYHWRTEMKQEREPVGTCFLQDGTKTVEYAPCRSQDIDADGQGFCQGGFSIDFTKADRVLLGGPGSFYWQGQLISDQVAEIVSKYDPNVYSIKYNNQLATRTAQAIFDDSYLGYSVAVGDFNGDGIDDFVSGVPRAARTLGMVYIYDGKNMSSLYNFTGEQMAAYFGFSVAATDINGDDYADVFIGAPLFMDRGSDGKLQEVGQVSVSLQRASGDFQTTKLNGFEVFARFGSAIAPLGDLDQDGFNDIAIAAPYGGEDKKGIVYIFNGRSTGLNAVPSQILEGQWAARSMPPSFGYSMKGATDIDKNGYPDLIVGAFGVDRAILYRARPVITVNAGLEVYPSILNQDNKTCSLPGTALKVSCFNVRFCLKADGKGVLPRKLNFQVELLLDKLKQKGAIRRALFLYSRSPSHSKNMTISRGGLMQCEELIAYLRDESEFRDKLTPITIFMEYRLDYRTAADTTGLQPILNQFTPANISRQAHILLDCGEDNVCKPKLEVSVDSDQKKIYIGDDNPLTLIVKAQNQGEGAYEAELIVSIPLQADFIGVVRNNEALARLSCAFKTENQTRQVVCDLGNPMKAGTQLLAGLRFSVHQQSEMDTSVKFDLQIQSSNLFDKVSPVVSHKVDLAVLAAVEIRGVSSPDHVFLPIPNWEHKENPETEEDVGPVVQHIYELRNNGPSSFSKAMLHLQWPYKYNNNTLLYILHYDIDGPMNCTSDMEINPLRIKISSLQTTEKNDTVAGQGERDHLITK

Tests used:
[1] = target: T1, vitronectin receptor (Vn-R) (Homo sapiens, UniProt P05106+P06756); assay: VnR binding, ELISA or liposome attachment assay (Table I)
T1 construct: from tissue; host or cells: human placenta
Procedure: Receptor and ligand purifications were performed according to the methods in this Example or those in Examaple XI.C. Receptors were purified according to the procedures of Pytela et al. (Methods Enzymol. 144:475 (1987)), incorporated herein by reference. […] After extraction, the suspension was filtered over a Sepharose 6B column and then applied to a GRGDSPK column. Except where stated, all procedures were carried out at 4° C. The peptide column was washed with three volumes of Tris-buffered saline (TBS) containing 1 mM Ca^2+ and Ca^2+ and 25 mM OG and then with TBS containing 1 mM 25 mM octyl thioglucoside (OTG) at room temperature. […] Finally, Ca^2+ and Mg^+2 were added to eluted fractions to achieve final concentrations of 1 mM for both ions.
Maxisorp microtiter plates were coated with 2 μg/ml human vitronectin dissolved in PBS ([…]) and stored overnight at 4° C. The plates were washed two times with PBS-0.05% Tween-20 (wash buffer) and blocked by incubating with about 150 μl/well of assay buffer (1%, BSA (RIA grade or better) in 50 mM Tris-HCl, 100 mM NaCl, 1 mM MgCl2, CaCl2, MnCl2 pH 7.4) for 60 minutes. Dilutions of standards were prepared and putative inhibitors (Table 2) were dissolved in assay buffer. The blocked plates were emptied and 20 μl/well of inhibitor or standard solution was added to each well. Twenty-five μl of a 30 μg/ml solution of purified αV β3 in assay buffer was pipetted into the coated plate. The final concentration of receptor in the assay well was about 15 μg/ml. The plate was incubated on a shaker for 60 minutes. Meanwhile, for each microtite plate, 6 ml buffer solution containing 1.5 μg/ml of mouse monoclonal antibody specific for β3 is prepared. To this solution was added the secondary antibody which is anti-mouse-Fc-HRP antibody conjugate. For example, for one plate, 6 ml of a 1.5 μg/ml mouse Mab solution was prepared to which was added 1 μl of anti-mouse-Fc-HRP antibody stock, (this represents a 1:6000 dilution of the antibody--HRP conjugate). This mixture was allowed to incubate during the receptor-inhibitor incubation. The assay plates were washed 4 times with PBS-Tween and 50 μl/well of the antibody mixture was then pipetted into the plate for a 60 minute incubation. The plate was washed 4 times and the color reaction was developed with 50 μl/well of 0.67 mg/ml o-phenyldiamine in PBS containing 0.012% H2 O2. Alternatively, 16 mM citric acid, 50 mM Na2 PO4 at pH 5.0 can be used as a substrate buffer. The reaction is stopped with 50 μl/well 1 M H2 SO4. The plates were read at 492-405 nm and the data analyzed by four-parameters fit.
This assay was performed with minor modifications, according to the method of Pytela et al., Methods Enzymol. 144:475 (1987), incorporated herein by reference. Briefly, 1:4 mixture of labelled and unlabelled phosphatidylcholine (PC) liposomes was dissolved under nitrogen and diluted with an equal volume of purified receptor (purified as described in Example II) to achieve a fixed predetermined receptor-liposome concentration ratio. This mixture was then dialyzed overnight at 4° C. in phosphate buffered saline (PBS) containing 1 mM Ca^2+. An aliquot of the dialyzed sample was counted to assess radioactive content; the receptor-liposome mixture was then diluted to obtain a set radioactivity per unit volume.
Microtiter plates were coated with 10 μg of vitronectin. Non-specific sites were blocked for 2 hours at 37° C. in PBS containing 5 mg/ml BSA and 1 mM each of CaCl2 and MgCl2. The plates were then rinsed twice with PBS containing 1 mM Ca^+2 and Mg^+2, and 100 μl of the liposome-receptor mixture was added to each well. If necessary, peptides were added before this step in a 1-10% dilution. The plates were then incubated at 4° C. for 24 hours. The following day, the liquid in each well was aspirated and the plates were washed twice with PBS containing 1 mM Ca^+2 and Mg^+2. […]

Bleeding time (Table IV) = type: in vivo; conditions: before dose
Procedure: Bleeding time was quantified at 1 hour before and one, three, and five hours after administration of the peptide. This was done by making a small (5 mm long and 1.5 mm deep) incision in the tongue and subsequently absorbing the exuded blood at this site every 15 seconds with a piece of Whatman filter paper until bleeding stopped. Platelet counts were determined with a Haema Count MK-4/HC platelet counting system.
Using the method described in Example V to measure ex vivo inhibition of platelet aggregation and the method described in Example VII to measure bleeding, four additional peptides were tested. These peptides included 11J, 11Q, 11K and 11V.

[2] = Rabbit peripheral blood flow (PBF), laser dopler flow probe; type: in vivo; conditions: bolus dose printed with drug
Procedure: (§1) In an alternative series of experiments, (Table 2) PBF was measured quantitatively with a laser dopler flow probe (Perimed). The probe was positioned securely over the vascular bed of one ear and flow monitored continuously. Each inhibitor was infused and CBT measured in the opposing ear. No arterial catheter was placed for blood sampling, consequently XPA was measured in these animals.
As positive control, epinephrine was infused intravenously (1 mg over 2 minutes) at 60 minutes. The resulting vasoconstriction reduced flow to near 0 flow units within 5 minutes.

platelets = assay: Ex vivo platelet aggregation in canine coronary thrombosis model; conditions: dog, 10 mg/kg, all three time points
Procedure: For all ex vivo studies (see FIG. 3), control aggregation values were standardized to the percentages of light transmission observed in PRP and PPP samples (0% and 100%, respectively).
Animals were randomly assigned to two treatment groups: vehicle control (i.e., normal saline) or RGD peptides at various concentrations. Peptides were administered intra-atrially in both bolus and continuous injections. Each bolus injection consisted of 0.5 to 10 mg/kg and was administered 15 minutes before application of the current. A continuous infusion of the same peptide was then started immediately after completion of this initial injection. Animals received a 25 μg/kg/min to 200 μg/kg/min infusion. The anti-thrombotic effects of the peptides were monitored until 30 minutes after the occurrence of a persistent, occlusive thrombus or five hours after the initiation of electrical stimulation (whichever resulted first). […]
Platelet counts and ex vivo aggregation studies were performed one hour before and 1, 3, and 5 hours after application of anodal direct current. Samples of arterial blood were drawn into plastic syringes containing 3.8% trisodium citrate (giving a 1:10 final dilution) and platelet aggregation determined as described in Example V.
Platelet aggregation was also determined ex vivo at one, three, and five hours after current application. […]

[3] = Baboon template bleeding time, clotting time and hematology; type: in vivo
Procedure: Twenty-four hours before the ex vivo shunt was established, platelets were isolated from 500 ml of blood from the test animal and labelled with ca. 500 microcuries of indium-111 oxine (Medi+Physics, Emeryville, Calif.), which irreversibly and specifically binds to platelets with an efficiency of 50%. Immediately after labelling, these platelets were then injected back into the animal and allowed to circulate for 24 hours. Immediately before the start of the study, fibrinogen that had been isolated from the animal and labelled with iodine-131 (DuPont Nuclear, Boston, Mass.) was also injected back into the animal. Also at this time, baseline determinations of the clotting and template bleeding times were made, and blood samples were drawn for hematology studies.
At one- and two-hour time points, template bleeding times were measured, and blood samples were drawn to assess the hematology aggregation studies. Platelet aggregation studies were performed as described in Example V using ADP as the stimulus.
Upon the completion of each study, each shunt was flushed with lactated Ringer's solution, and each graft was then removed. Sections of these grafts were subjected to liquid scintillation counting to determine their content of residual ^131 iodine-fibrinogen and ^111 indium-platelets. The catheters in the femoral artery and vein were then removed, and hemostasis was achieved by compression. Finally, post-procedural blood samples were drawn, and determinations of template bleeding and clotting times were also made.

[4] = Rabbit cutaneous bleeding time (CBT); type: in vivo; conditions: bolus dose printed with drug
Procedure: Unanesthetized male New Zealand White rabbits (2.5-3.5 kg) were placed in a standard rabbit restrainer. Ears were shaved and a 20G teflon catheter with flowswitch (Viggo) was placed in the medial artery, flushed with saline and locked with 1 ml of heparinized saline (10 m/ml). A 22G catheter (Abbott) fitted with an injection cap (Medex) was placed in the marginal vein of the same ear. Saline or a GP IIb IIIa receptor antagonist, at a concentration of 1 to 3 mg/ml, was infused via the venous catheter. At time 0, 41% of the dose was given as a bolus over 2 minutes. The remainder was continuously infused over the following 60 minutes. Blood samples (3.2 ml) were collected into syringes without needles via the arterial catheter at -10, -5, 10, 45 and 60 minutes. […]
CBT was measured at -10, -5, 10, and 45 minutes on the opposite ear, using an automated incision-making instrument (SurgicuttR, ITD). […]
as §1

[5] = baboon animal 1, immediately after completion of second shunt

Substance | IC50 [1] [µM] | further results
(Pmp)GHRGDLR(Pen)A | 5.2 | –
Ac(dPen)IPRGD(O-Me-Tyr)RC--NH2 | 4.32 | –
Ac--CNPKGD(Y--OMe)RC--NH2 [11Q] | – | Pre dose bleeding time (Bleeding time (Table IV)): 2.1 min
Ac--CNPRGD(Y--OMe)(Nle)C--NH2 [11V] | – | Pre dose bleeding time (Bleeding time (Table IV)): 2.0 min
Ac--CNPRGD(Y--OMe)AC--NH2 [11K] | – | Pre dose bleeding time (Bleeding time (Table IV)): 2.1 min
Ac--CNPRGD(Y--OMe)EC--NH2 [11J] | – | Pre dose bleeding time (Bleeding time (Table IV)): 2.1 min
Ac--CNPRGD(Y--OMe)RCNH2 [8X] | – | PBF ([2]; time 0 min): 263 units; PBF ([2]; time 10 min): 317 units; PBF ([2]; time 45 min): 293 units
D(Pmc)GHRGD(O-Me-Tyr)RCR | 8.85 | –
F(Pmc)GHRGD(O-Me-Tyr)RCR | 6.04 | –
G(Pen)GHRGDLRCA [2G] | 1.2 | inhibition of ex vivo AA-stimulated aggregation relative to control levels (platelets): 43-70%; inhibition of ex vivo collagen-stimulated aggregation relative to control levels (platelets): 12-50%; template bleeding and clotting times ([3]; baboon animal 1): did not lower; reduction of platelet count [3, 5]: 14%; reduction of white blood cell count [3, 5]: 37%; effect on template bleeding time, clotting time, all blood cell counts ([3]; baboon animal 2): no effect
G(Pen)GRGDFPCA | 2.7 | –
G(Pen)GRGDLPCA | 0.073 | –
G(Pen)GRGDWPCA | 12.7 | –
G(dPen)GHRGDLRCA | 5.3 | –
H(Pmc)GHRGD(O-Me-Tyr)RCR | 8.4 | –
K(Pen)GRGDTPCA | 0.015 | –
K(Pmc)GHRGD(O-Me-Tyr)RCK | 3.9 | –
R(Pen GRGDWPCR [4R] | 4.2 | –
R(Pen)GHRGD(Cha)RCR | 10 | –
R(Pen)GHRGDLRCR | 37.1 | –
R(Pmc)GHRGD(O-Me-Tyr)OCR | 9.3 | –
R(Pmc)GHRGD(Phg)RCR | 0.79 | –
R(Pmc)GHRGD(Y--OMe)RCR | – | CBT ([4]; time 0 min): 2.9 min and 2.1 min; CBT ([4]; time 45 min): 1.5 min and 1.2 min; PBF ([2]; time 0 min): 392 units and 318 units; PBF ([2]; time 45 min): 360 units and 283 units
R(Pmc)RHRGD(O-Me-Tyr)RCR | 6.2 | –
R(am-Pmp)GHRGDWRCR | 5.9 | –
R(am-Pmp)GRGDWPCR | 0.84 | –
